Assay outcomes (PubChem)
Rango complex inh = prevents formation of the Rango-importin beta complex; Rango CFP/YFP FRET sensor + importin beta, 45 min; Potency, µM (highest dose often 92.2 µM), inactives show top-dose inhibition of complex formation; 340,000 compounds, 0.031% hits; AID 540263;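 further: 0% = DMSO wells and 100% = buffer wells lacking importin beta; nearly all actives have a fitted effect of over 15% in size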
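Inhibition scored from the CFP 486 nm/YFP 530 nm FRET ratio 45 min after adding 0.125 microM importin beta to 50 nM Rango biosensor preincubated 5 min with compound (room temperature, PBS with DTT, Tween-20, BSA). No-importin wells as positive control.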
ERG Ets-DNA blk = ERG Ets/DNA interaction inhibition. fluorescence polarization, His-ERG Ets domain / labelled DNA. Potency, µM (series often up to 76.9 µM), for inactives: at the top dose FP activity, negative = inhibition, usual class: inhibitors. 370,000 compounds, 0.028% hits; active means well fitted inhibition curve with a large enough effect in the polarisation, with a control signal flat; inconclusive means small, poorly fitted or top-dose-only effect, or effect the other way, or a change in a side signal; inactive means no such curve, though single readings can be large or run the other way; the % refers to the polarisation;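 further: polarization taken with two DNA probes labelled with fluorescein and Texas red; % of control where 0% means no effect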
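His-tagged ERG Ets domain (1 uM in the protein solution; 300mM KCl, 50mM Tris-HCl, 1mM EDTA, 1mM DTT, pH 7.5) received compound, then a probe mix of 5 nM fluorescein-DNA and 100nM Texas-615-DNA. Fluorescence polarization was read for both dyes.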
RGS4 inhibitor = inhibitors of human regulator of G protein signaling 4 | P49798 | Transcreener GDP fluorescence polarization, RGS4-accelerated GTP hydrolysis | Potency, µM (series often up to 114 µM), for the others: at the top dose activity change, negative = inhibition, most hits filed as inhibitors | 390,000 compounds, 0.039% hits | AID 504845; active means well fitted inhibition curve with a large enough effect; inconclusive means small, poorly fitted or top-dose-only effect; inactive means no such curve, though single readings can be large or run the other way; further: on the % scale 0 is the no-effect control and ±100 the full control effect; nearly all actives have a fitted effect of over 75% in size
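MLSMR compounds (23 nl, pin-transferred) preincubated 10 min at room temperature with a 500nM (2x) first reagent, then RGS4 at 900nM (2x) plus Transcreener GDP mix added; fluorescence polarization (620/688 nm) read before and after 90 min at 30 °C.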
Rango dissoc inh = inhibitors of RanGTP-induced Rango-importin beta complex dissociation; Potency, µM (doses to about 46.1 µM), for the others: at the highest dose activity change, negative = inhibition; 340,000 compounds, 0.071% hits; Biochemical FRET Rango-importin beta, RanGTP-induced dissociation; AID 540253; further: % of control where 0% means no effect; nearly all actives have a fitted effect of over 45% in size
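Rango/importin beta premix (0.1/0.25 uM final), PBS + 1 mM DTT + 0.02% Tween-20 + 0.1% BSA; cpd 5 min RT; FRET pre-read; + RanGTP-RCC1 (0.6 uM Ran, 2 mM GTP, 0.2 uM RCC1); 45 min RT; FRET post-read, ex 430, em 486/530 nm.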
Numbers without * were called inactive; ? = inconclusive; nt = no result given; ! = a repeat was not active; [ ] = dose if it differs, or a comment. An excerpt weighted towards active compounds, which were near 0.14% of everything screened. Unless noted, the call rests on the fitted dose curve. Potency means the concentration at half of the fitted maximal effect.

nr	RGS4 inhibitor	Rango dissoc inh	Rango complex inh	ERG Ets-DNA blk	canonical_smiles
1	-19.7%	?	32.6µM*	116.7%	CCN1CCN(c2cc(N3CCN(C(=O)c4ccco4)CC3)c3c4c(onc24)-c2ccccc2C3=O)CC1
2	-10.4%	nt	nt	-0.2%	O=C(Cn1c(=O)oc2cc(S(=O)(=O)NCc3ccccc3)ccc21)NCc1ccc(F)cc1
3	-42.2%	17.1%	36.6µM*	nt	COc1cc(/C=C2\SC(=S)N(Nc3ccccc3)C2=O)ccc1O
4	-53.1%	0.4%	36.6µM*	147.3%	O=C1/C(=C/c2ccc(O)c(O)c2)SC(=S)N1Nc1ccccc1
5	-23.2%[56.9 µM]	?	36.6µM*	144.0%	O=C(NN1C(=O)/C(=C/c2ccc(O)c(O)c2)SC1=S)c1ccccc1
6	-12.1%[11.4 µM]	?	16.6%	?	CCOc1cc(/C=C2\SC(=S)N(Nc3ccccc3)C2=O)ccc1O
7	15.9%	nt	nt	-3.1%	CCOc1ccc(C2CC(=O)Nc3c2c(=O)nc(SCc2ccccc2C)n3C)cc1OC (centres undefined)
8	?	14.6%	-1.6%	-7.4%	Fc1ccc(NC(=S)Nc2nccs2)cc1
9	10.6µM*!	-9.7%	0.7%	3.5%	S=C(Nc1ccccc1)Nc1nccs1
10	37.7µM*	nt	nt	nt	O=c1ccn([C@@H]2O[C@H](COP(=O)(O)O)[C@@H](O)[C@H]2O)c(=O)[nH]1
11	-6.9%	0.2%	0.3%	1.7%	Nc1ccn(C2OC(COP(=O)(O)O)C(O)C2O)c(=O)n1 (centres undefined)
12	2.3%	-11.0%	-4.4%	?	O=C1Cc2cc(S(=O)(=O)N3CCN(c4ccccc4)CC3)ccc2N1
13	16.8µM*	nt	nt	nt	O=C1Cc2cc(CCN3CCN(c4nsc5ccccc45)CC3)c(Cl)cc2N1
14	-19.5%	14.6µM*	?	2.8%	CCOC(=O)c1c(NC(C)=O)sc2c1CCC(C=O)=C2Sc1ccccc1
15	-7.7%	?	?	-13.2%	CCOC(=O)c1c(NC(C)=O)sc2c1CCN(Cc1ccccc1)C2

Just Rango dissoc inh, Rango complex inh and RGS4 inhibitor, for some of the entries so far:
no.	Molecule	Rango dissoc inh	Rango complex inh	RGS4 inhibitor
6	CCOc1cc(/C=C2\SC(=S)N(Nc3ccccc3)C2=O)ccc1O	?	16.6%	-12.1%[11.4 µM]
12	O=C1Cc2cc(S(=O)(=O)N3CCN(c4ccccc4)CC3)ccc2N1	-11.0%	-4.4%	2.3%

Back to the main list, starting 2 compounds before the break.
nr	RGS4 inhibitor	Rango dissoc inh	Rango complex inh	ERG Ets-DNA blk	canonical_smiles
14	-19.5%	14.6µM*	?	2.8%	CCOC(=O)c1c(NC(C)=O)sc2c1CCC(C=O)=C2Sc1ccccc1
15	-7.7%	?	?	-13.2%	CCOC(=O)c1c(NC(C)=O)sc2c1CCN(Cc1ccccc1)C2
16	-3.6%	14.6µM*	?	0.4%	CC(C)C/C(O)=C/c1nc2cc(Cl)ccc2oc1=O
17	-25.1%	16.9%	-1.1%	13.8%	Cc1ccc(-n2c(O)c(C=NC3CCS(=O)(=O)C3)c3ccccc3c2=O)c(C)c1 (centres undefined)
18	1.2%	9.2µM*	?	-7.8%	Cc1ccc(-n2c(O)c(C=Nc3cc(C)on3)c3ccccc3c2=O)c(C)c1
19	-41.9%	14.6µM*	?	-2.0%	COC(=O)c1ccc(C2N=C(c3cccs3)CC(c3ccccc3O)N2)cc1 (centres undefined)
20	-14.8%	nt	nt	1.4%	Cn1nnnc1SCCCNCc1ccccc1OCc1ccccc1Cl
21	8.5%	0.4%	20.6µM*	7.2%	COc1c(OC(C)=O)c(=O)n2c3ccccc3c3ccnc1c32
22	14.4%	13.5%	7.1%	0.9%	CC(=O)Oc1c(C)c(=O)n(C)c2ccccc12
23	-25.6%	nt	nt	9.1%	Cc1ccc(NS(=O)(=O)c2ccc3[nH]c4c(c3c2)CCCCC4)cc1
24	18.9µM*	nt	nt	nt	O=C1NC(=O)c2cc(Nc3ccccc3)c(Nc3ccccc3)cc21
25	-25.6%	2.0%	58µM*	1.2%	COc1cccc(NC2=Nc3cccc4cccc2c34)c1
26	-25.5%	nt	nt	nt	O=C1CC(c2ccco2)CC2=C1C(c1ccc(O)cc1)n1nc(C(F)(F)F)nc1N2 (centres undefined)
27	?	0.4%	0.0%	28.2µM*	N=C1SCC(=O)N1/N=C/c1ccccc1
28	10.0%	nt	nt	3.6%	CCC(C)NC(=O)CSc1nc2cc3c(cc2c(=O)n1Cc1ccc(C(=O)NCCc2ccc(OC)c(OC)c2)cc1)OCO3 (centres undefined)
29	0.7%	nt	nt	-2.2%	CC(NC(=O)C1CCN(C(=O)c2ccc(-n3ccc4ccccc43)s2)CC1)c1ccccc1 (centres undefined)
30	2.67µM*	nt	nt	nt	O=C(O)C=Cc1ccc(Cn2ccnc2)cc1

Reformatted as labelled records: entries from further up.
23	Cc1ccc(NS(=O)(=O)c2ccc3[nH]c4c(c3c2)CCCCC4)cc1
  RGS4 inhibitor = -25.6%
  Rango dissoc inh = nt
  Rango complex inh = nt
  ERG Ets-DNA blk = 9.1%

24	O=C1NC(=O)c2cc(Nc3ccccc3)c(Nc3ccccc3)cc21
  RGS4 inhibitor = 18.9µM*
  Rango dissoc inh = nt
  Rango complex inh = nt
  ERG Ets-DNA blk = nt

Next results
nr	RGS4 inhibitor	Rango dissoc inh	Rango complex inh	ERG Ets-DNA blk	canonical_smiles
31	-6.7%	nt	nt	4.9%	Cc1cccc(NS(=O)(=O)c2ccc(Cl)c(C(=O)Nc3ccccc3C)c2)c1
32	-7.9%	-3.1%	-0.1%	-25.3%	Fc1ccc(-[n+]2nc(Nc3ccccc3)sc2-c2c3ccccc3cc3ccccc23)cc1
33	-14.0%	0.7%	51.7µM*	-27.0%	Oc1ccc2ccccc2c1-c1sc(Nc2ccccc2)n[n+]1-c1ccc(F)cc1
34	0.597µM*	nt	nt	nt	OCC1O[C@H]([S-])[C@H](O)[C@@H](O)[C@@H]1O.[Au+] (some centres undefined)
35	15.1%	11.6µM*	?	-11.6%	Cc1cccc(NC(=O)c2cc3ccccc3oc2=O)c1
36	-6.0%	-1.2%	6.8%	6.4%	COc1ccc2oc(=O)c(C(=O)Nc3cccc(C)c3)cc2c1
37	-32.3%	10.3µM*	?	-3.4%	COc1ccc2c(c1)O/C(=C\c1sccc1C)C2=O
38	-7.3%	4.6%	0.4%	-21.8%	COc1ccc(/C=C2\Oc3ccccc3C2=O)cc1
39	21.2µM*	nt	nt	nt	O=[N+]([O-])c1ccc2c(c1)S(=O)(=O)C=C2
40	4.1%	?	?	10.0%	CN(C)CCNS(=O)(=O)c1ccc2c3c(cccc13)C(=O)N2
41	1.6%	7.31µM*	?	-3.2%	O=C1Nc2ccc(S(=O)(=O)NCc3ccccn3)c3cccc1c23
42	26.7µM*	nt	nt	nt	CCCCC[C@H](O)/C=C/[C@H]1[C@H](O)CC(O)[C@@H]1C/C=C\CCCC(=O)O (some centres undefined)
43	21.2µM*	nt	nt	nt	CC/C=C\C/C=C\C/C=C\C/C=C\C/C=C\CCCCCC(=O)O
44	37.7µM*	nt	nt	nt	CCCCC/C=C\C/C=C\C/C=C\CC1OC1CCCC(=O)O (centres undefined)
45	14.4%	-9.4%	7.0%	2.6%	CCCCC[C@H](O)/C=C/[C@@H]1[C@@H](C/C=C\CCCC(=O)O)[C@@H](O)C[C@H]1O
46	-0.2%	nt	nt	8.2%	Cc1ccc(NC(=O)N2CCC(N3CCN(Cc4ccccc4)C(=O)C3=O)CC2)cc1Cl
47	12.2%	nt	nt	1.5%	CCOc1ccc(N(CC)S(=O)(=O)N2CCCC(C(=O)Nc3cc(Cl)ccc3OC)C2)cc1 (centres undefined)
48	-19.4%	10.3µM*	?	-5.6%	O=C(O)Cn1cc(/C=C2/NC(=O)N(c3ccc(Cl)cc3)C2=O)c2ccccc21
49	-21.6%	?	?	-8.6%	CC(C)n1cc(/C=C2\NC(=O)N(c3cccc(Cl)c3)C2=O)c2ccccc21
50	-24.2%	-1.8%	1.2%	31.6µM*	COc1ccccc1C1CCN(Cc2ccc(C)cc2)CC1
51	2.5%	10.3µM*	?	-2.0%	CCNc1nn2ccccc2c1/C=C(\C#N)C(=O)OCC
52	19.6%	8.4%	-4.0%	-1.5%	CCOC(=O)/C(C#N)=C/c1c(N2CCCCCC2)nc2ccccn2c1=O
53	-27.9%	-14.9%	-3.7%	-2.4%	COc1cccc(C2C(C#N)=C(N)OC(C(C)(C)C)=C2C#N)c1 (centres undefined)
54	19.3%	20.6µM*	?	3.6%	COc1cccc(/C=C2/CN(C)CC3=C2OC(N)=C(C#N)C3c2cccc(OC)c2)c1 (centres undefined)
55	11.9µM*!	11.6%	-2.5%	-0.7%	O=C1NC(=O)C(c2ccccc2[N+](=O)[O-])=C1Nc1ccc(O)c(Cl)c1
